The target in this assay is human opioid receptor-like receptor (ORL-1) (Homo sapiens, UniProt P41146). The experiment in a line: In vitro ORL-1 receptor binding assay ([3H]-nociceptin displacement). Conditions: read-out: Ki [Average ± Std Deviation] ORL-1; membranes from recombinant HEK-293 cells.

Amino acid sequences for entries named in this document (tags omitted).
UniProt P41146, whole entry: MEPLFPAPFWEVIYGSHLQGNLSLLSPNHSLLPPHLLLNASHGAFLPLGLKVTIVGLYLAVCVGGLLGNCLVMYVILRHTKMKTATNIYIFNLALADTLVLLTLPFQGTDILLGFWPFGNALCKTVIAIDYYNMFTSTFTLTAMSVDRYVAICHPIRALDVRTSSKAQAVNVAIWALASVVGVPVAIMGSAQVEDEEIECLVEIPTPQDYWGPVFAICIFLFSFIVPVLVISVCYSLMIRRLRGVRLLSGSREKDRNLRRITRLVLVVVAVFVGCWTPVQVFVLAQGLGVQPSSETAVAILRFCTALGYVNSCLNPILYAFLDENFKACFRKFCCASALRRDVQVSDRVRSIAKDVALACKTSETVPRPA

In patent publication US9527840B2, “Substituted-quinoxaline-type piperidine compounds and the uses thereof” (priority 2007, dated 2016) one finds Ki data, which are given here for 1 substance.

Some compounds may have been tested in ways that are not shown here.

One may read the Ki as a dissociation constant, usually derived from enzyme kinetics or from competition with a known ligand. For “1-(4-(3-(hexahydropyrrolo[3,4-c]pyrrol-2(1H)-yl)-2-oxo-3,4-dihydroquinoxalin-1(2H)-yl)piperidin-1-yl)cyclooctanecarboxamide”, the Ki was 44.6 nM.
